{
  "source": "paper PMC10644204",
  "about": "(Pharmacology Research & Perspectives, 2023)",
  "origin": "cited, not measured here",
  "system": "QT interval",
  "details": "supratherapeutic vs therapeutic doses; cited from earlier work",
  "data": [
    {"substance": "ritonavir‐boosted lopinavir", "values": [
      {"measurement": "QT prolongation", "result": "QT prolongation with supratherapeutic doses but not therapeutic doses"}
    ]}
  ]
}
